# Earlier results, collected in paper PMC9094701, “Multiple-Allele MHC Class II Epitope Engineering by a Molecular Dynamics-Based Evolution Protocol” (Frontiers in Immunology, 2022).
# Target: DRB1*01:01 (Homo sapiens, UniProt P01903+P01911, A100R/D57E/F55L/F60I/F76Y/I96L/L162R/M171V/P40L/Q125E/R42F/V115G/Y59C)
# Details: cited from earlier work
sequence,measurement,value
"YPKYVKQNTLKLAT [Influenza A virus peptide from the Hemagglutinin antigen, reference compound]",IC50,130 nM
